Results taken from article PMC11706420, “Establishing a physiologically based pharmacokinetic framework for aldehyde oxidase and dual aldehyde oxidase‐CYP substrates” (CPT: Pharmacometrics & Systems Pharmacology, 2024).

System: cMdr1-KO MDCK-EV cells
Assay: In vitro permeability (Papp), transwell transport

Substance: 3H-atenolol
- Papp Apical to basolateral (5 µM, 120 min, n=3, mean (CV%)): 1.47 (25.2) 10^−6 cm/s
- Papp Basolateral to apical (5 µM, 120 min, n=3, mean (CV%)): 1.45 (8.97) x 10-6 cm/s
- Efflux ratio (ratio of mean values): 0.985
